Results reported in ChEMBL document CHEMBL1134812, “Benzamide bioisosteres incorporating dihydroheteroazole substructures: EPC synthesis and SAR leading to a selective dopamine D4 receptor partial agonist (FAUC 179)” (Bioorg Med Chem Lett, 2001).

Sequences of proteins named here, by UniProt entry; tags and fusion partners are left off.
UniProt P21917, whole entry: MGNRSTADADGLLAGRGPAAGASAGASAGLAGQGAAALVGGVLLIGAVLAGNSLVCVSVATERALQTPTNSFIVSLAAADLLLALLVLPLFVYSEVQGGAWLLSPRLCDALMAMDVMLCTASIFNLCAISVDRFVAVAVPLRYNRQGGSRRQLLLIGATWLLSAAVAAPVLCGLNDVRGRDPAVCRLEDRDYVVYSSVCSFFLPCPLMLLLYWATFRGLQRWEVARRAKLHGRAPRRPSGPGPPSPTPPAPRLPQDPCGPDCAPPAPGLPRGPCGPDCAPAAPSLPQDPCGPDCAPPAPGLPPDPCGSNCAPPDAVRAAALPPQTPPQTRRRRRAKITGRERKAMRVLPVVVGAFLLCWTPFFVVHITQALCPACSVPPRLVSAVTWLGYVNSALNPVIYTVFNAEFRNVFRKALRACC

How the values were obtained:
Assay type in all cases: cell-based
D(4) dopamine receptor [1] = biological target: T1, D(4) dopamine receptor (Homo sapiens, UniProt P21917); assay: In vitro for its ability to displace [3H]- spiperone from cloned human Dopamine receptor D4 expressed in CHO cells
Procedure, shortened: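 [3H]Spiperone displacement from cloned human dopamine receptors stably expressed in CHO cells: D2long, D2short, D3 and D4.4 (the D4 line used the D4.4 variant). Ki values were determined.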

D(4) dopamine receptor [2] = biological target: T1, D(4) dopamine receptor; assay: In vitro for its ability to displace [3H]- spiperone from cloned human Dopamine receptor D4 expressed in CHO cells; High binding affinity
D(4) dopamine receptor [3] = biological target: T1, D(4) dopamine receptor; assay: In vitro for its ability to displace [3H]- spiperone from cloned human Dopamine receptor D4 expressed in CHO cells; Low binding affinity

| Ki (D(4) dopamine receptor [1]) [nM] | Ki (D(4) dopamine receptor [2]) [nM] | Ki (D(4) dopamine receptor [3]) [nM] | SMILES |
| --- | --- | --- | --- |
| 72 |  |  | c1ccc(C2=NC[C@H](CN3CCN(c4ccccc4)CC3)N2)cc1 (stereo in doubt) |
|  | 0.95 | 51 | c1ccc(C2=NC[C@H](CN3CCN(c4ccccc4)CC3)N2)cc1 (stereo in doubt; 4e) |
